This data set is described as follows: Solute release from bonded HPC gel membranes (modified HPLC system). Format: physicochemical. As for the experimental part: Solute release tests were conducted in the same manner as for PNIPA gels, as described in Example 1. The solute release experiments were designed to model the actual conditions of catheter use, which entail therapeutic solute loading at room temperature (25° C.), insertion of the catheter into the patient at 37° C., and temperature induced enhanced solute release when the catheter is placed at a target location in the body. While the experimental design was generally successful in modeling the actual use of catheter, heat lost to the experimental apparatus tubing reduced the 37° C. test temperature to 33° C. Because the transition temperature of HPC is fairly sharp (in this case, 43° C.), the reduction of test temperature from 37° C. to 33° C. had little impact on the test results.
Solute release experiments were conducted under four constant temperature conditions and three step change conditions. […] Thus, test temperatures below and above the transition temperature of HPC (43° C.) were used. […]

For FITC-dextran [reference compound], the “solute released in the five minutes following the trigger” value reads like this: (24° C. to 46° C. trigger) 37%; (24° C. to 53° C. trigger) 65%.

Values taken from patent publication US7407671B2, “Temperature controlled solute delivery system” (Boston Scientific Scimed, Inc., priority 1998, dated 2008).
